# Values of other authors as cited in article PMC8037418, “Outlining In Vitro and In Silico Cholinesterase Inhibitory Activity of Twenty-Four Natural Products of Various Chemical Classes: Smilagenin, Kokusaginine, and Methyl Rosmarinate as Emboldening Inhibitors” (Molecules, 2021).
# The chains behind the UniProt entries cited, without tags or fusion partners. Residues count along the entry.
# UniProt P06276, 29-602: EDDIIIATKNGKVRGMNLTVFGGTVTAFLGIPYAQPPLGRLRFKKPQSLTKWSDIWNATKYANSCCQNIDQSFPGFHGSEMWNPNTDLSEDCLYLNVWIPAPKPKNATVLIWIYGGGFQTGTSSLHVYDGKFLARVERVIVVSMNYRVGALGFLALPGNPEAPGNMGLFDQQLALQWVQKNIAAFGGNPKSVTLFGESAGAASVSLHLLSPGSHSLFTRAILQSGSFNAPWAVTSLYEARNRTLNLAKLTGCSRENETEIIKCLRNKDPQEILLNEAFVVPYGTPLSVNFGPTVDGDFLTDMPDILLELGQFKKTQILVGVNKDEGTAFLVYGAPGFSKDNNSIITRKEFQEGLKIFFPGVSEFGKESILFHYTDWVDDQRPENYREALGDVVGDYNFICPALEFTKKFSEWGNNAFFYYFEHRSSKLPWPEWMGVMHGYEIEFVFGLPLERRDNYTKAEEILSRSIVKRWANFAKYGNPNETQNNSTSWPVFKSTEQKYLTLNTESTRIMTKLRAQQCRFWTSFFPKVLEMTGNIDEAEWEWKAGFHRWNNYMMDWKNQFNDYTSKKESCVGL
# Target: BChE (Homo sapiens, UniProt P06276)
# Conditions: Calceolaria talcana study; cited from earlier work
substance,measurement,value
Forsythoside B,IC50 BChE,27.6 µg/mL
